The results in this text go back to patent US20190307754A1, “PDE9 INHIBITORS FOR TREATMENT OF PERIPHERAL DISEASES” (IMARA, INC., priority 2016, published 2019).

The series can be described thus: Blood Brain Barrier penetration (brain-to-plasma distribution). Particulars: male CD mice, 10 mg/kg subcutaneous.

Each structure is given as a SMILES string.

On to `O=c1[nH]c(CN2CC(Oc3ccncc3)C2)cn2c(-c3ccc(F)cc3)ncc12`, for which, under “30 min”, the Brain/Plasma ratio after 30 minutes turned out to be 0.06 and the “Plasma concentration after 30 minutes” value was 30 min.: 719 ng/mL. Further, for the setting “120 min”, the Brain/Plasma ratio after 120 minutes was found to be 0.08 and the “Plasma concentration after 120 minutes” value is recorded as 120 min.: 86 ng/mL.
